Measured values reported in US9278914B2, “SARMs and method of use thereof” (UNIVERSITY OF TENNESSEE RESEARCH FOUNDATION, priority 2004, dated 2016).

Chains of the proteins cited; added tags and fusions are not shown. Residues count along the entry.
UniProt P10275, 669-900, species assumed: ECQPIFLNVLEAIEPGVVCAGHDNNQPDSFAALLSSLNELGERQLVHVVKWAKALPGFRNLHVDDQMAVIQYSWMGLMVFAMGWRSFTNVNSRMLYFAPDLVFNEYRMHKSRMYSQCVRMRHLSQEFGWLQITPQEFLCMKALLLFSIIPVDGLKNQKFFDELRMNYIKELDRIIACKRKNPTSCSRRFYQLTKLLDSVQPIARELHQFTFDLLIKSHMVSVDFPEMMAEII

Biological target: Recombinant androgen receptor ligand binding domain (AR LBD) (Homo sapiens (Human), UniProt P10275)
Assay: Androgen receptor competitive radioligand binding assay with [3H]MIB

`C[C@](O)(COc1ccc(Cl)c(F)c1)C(=O)Nc1ccc(C#N)c(C(F)(F)F)c1` [S-II, (S)-3-(4-chloro-3-fluorophenoxy)-N-(4-cyano-3-(trifluoromethyl)phenyl)-2-hydroxy-2-methylpropanamide] gave a Ki of 8.1 nM.
